Earlier results, collected in US5385911A, “Anti-herpes castanospermine esters” (priority 1990, dated 1995).

What was measured:
[1] = test system: viral protein glycosylation; details: cited from earlier work
influenza infected cells = details: cited from earlier work

OC[C@H]1OC(O)[C@@H](F)[C@@H](O)[C@@H]1O (stereo partly drawn) [2-deoxy-2-fluoro-D-mannose]
inhibition of viral protein glycosylation [1]: preventing the glycosylation of viral membrane protein
antiviral activity against influenza infected cells (influenza infected cells): exhibit antiviral activity against influenza infected cells
